Literature values in patent US20070281910A1, “Salicyl alcohol creatine phosphate prodrugs, compositions and uses thereof” (XenoPort, Inc., priority 2006, published 2007).

Conditions: ALS patients

Nc1nc2ccc(OC(F)(F)F)cc2s1 [riluzole]
extension of survival in ALS: about three
